Tests used:
[1] = target: Arabidopsis recombinant CYP707A3 (ABA 8′-hydroxylase) (Arabidopsis thaliana, UniProt Q9FH76); assay: CYP707A3 inhibition assay (decrease of enzymatic product PA); assay type: biochemical; conditions: read-out: CYP707A IC50; Arabidopsis recombinant CYP707A3 expressed in E. coli; 5 μM ABA as substrate
Experimental: The inhibitory activities of Abz-T compounds against ABA 8′-hydroxylase were examined using recombinant Arabidopsis CYP707A3 co-expressed with Arabidopsis P-450 reductase (ATR1) in Escherichia coli[22]. The activity levels were evaluated based on the decrease in the amount of the enzymatic product, PA. […] The inhibition constant (KI) of (−)-compound 6 was determined to be 35 nM.
Reaction mixtures, containing 25 μg mL^−1 of CYP707A3 microsomes (co-expressed with ATR1 in E. coli), ABA (final concentrations of 1–64 μM for determining the KI value or 5 μM for determining the IC50 value), inhibitors (0 for control, 0.5–1,500 μM in 5 μL dimethylformamide) and 130 μM NADPH in 100 mM potassium phosphate buffer (pH 7.25), were incubated at 30 °C for 10 min. Reactions were initiated by adding NADPH, stopped by the addition of 25 μL of 1 M NaOH and then acidified with 50 μL of 1 M HCl. Reaction products were extracted by loading the mixture onto an Oasis HLB cartridge (1 mL, 30 mg; Waters Corp., Milford, MA, USA) and were washed with 1 mL of 10% MeOH in H2O (v/v) containing 1% acetic acid (AcOH, v/v). The enzyme products were then eluted with 1 mL of MeOH containing 1% AcOH, and the eluate was concentrated in vacuo. Each dried sample was then dissolved in 50 μL of MeOH, and a 20-μL volume was subjected to HPLC (Prominence; Shimadzu Corp., Kyoto, Japan). HPLC conditions were as follows: the octadecylsilyl column was composed of Hydrosphere C18 (150 × 6.0 mm, YMC Co., Ltd., Kyoto, Japan), and the solvent comprised 17% acetonitrile (MeCN) in H2O containing 0.05% AcOH (v/v). The flow rate was 1.0 mL min^−1, and detection was at 254 nm. Enzyme activity was evaluated by determining the amount of PA in control experiments prior to taking each set of measurements. The inhibition constants were determined using the Enzyme Kinetics module of the SigmaPlot 10 software (Systat Software, Inc., San Jose, CA, USA) after determining the inhibition mode by plotting the reaction velocity in the presence and absence of the inhibitor on a double-reciprocal plot. The inhibition ratio was defined as [(A − B)/A] × 100, where A = the amount of PA when the inhibitor was absent from the reaction mixture (control), and B = the amount of PA when the inhibitor was present. All of the tests were conducted at least three times.

The chains behind the UniProt entries cited, without tags or fusion partners.
UniProt Q9FH76, whole entry: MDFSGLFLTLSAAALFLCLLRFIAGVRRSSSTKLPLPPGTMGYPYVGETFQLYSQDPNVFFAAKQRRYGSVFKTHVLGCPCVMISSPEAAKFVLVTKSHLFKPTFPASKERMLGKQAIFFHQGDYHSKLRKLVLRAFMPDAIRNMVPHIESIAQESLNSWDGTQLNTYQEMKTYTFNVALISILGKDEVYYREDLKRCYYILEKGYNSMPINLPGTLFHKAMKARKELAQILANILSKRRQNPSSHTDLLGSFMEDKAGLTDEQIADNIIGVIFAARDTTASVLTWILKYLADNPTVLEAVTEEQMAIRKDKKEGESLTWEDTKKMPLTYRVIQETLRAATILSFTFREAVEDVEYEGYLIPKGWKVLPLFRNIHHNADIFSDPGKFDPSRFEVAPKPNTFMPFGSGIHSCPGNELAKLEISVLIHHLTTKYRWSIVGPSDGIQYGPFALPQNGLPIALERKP
UniProt Q5Z5R4, whole entry: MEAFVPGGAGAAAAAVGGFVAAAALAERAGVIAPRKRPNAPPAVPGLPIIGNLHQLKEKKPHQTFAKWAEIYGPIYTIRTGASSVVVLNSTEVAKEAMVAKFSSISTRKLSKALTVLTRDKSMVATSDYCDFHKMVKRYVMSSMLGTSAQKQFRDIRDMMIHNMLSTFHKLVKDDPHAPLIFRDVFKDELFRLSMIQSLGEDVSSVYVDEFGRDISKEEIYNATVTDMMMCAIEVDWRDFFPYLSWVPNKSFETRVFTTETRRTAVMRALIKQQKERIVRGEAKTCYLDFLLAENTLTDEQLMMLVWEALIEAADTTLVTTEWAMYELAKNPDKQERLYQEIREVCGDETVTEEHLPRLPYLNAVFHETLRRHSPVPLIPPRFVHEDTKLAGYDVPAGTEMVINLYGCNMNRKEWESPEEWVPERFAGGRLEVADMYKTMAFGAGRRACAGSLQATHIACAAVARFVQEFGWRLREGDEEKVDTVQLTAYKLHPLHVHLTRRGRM

[2] = target: Rice recombinant CYP701A6 (ent-kaurene oxidase) (Oryza sativa subsp. japonica, UniProt Q5Z5R4); assay: CYP701A6 inhibition assay (formation of end product KA); assay type: biochemical; conditions: read-out: CYP701A IC50, Rice recombinant CYP701A6 expressed in insect cells, 10 μM ent-kaurene
Experimental: To evaluate the enzymatic selectivity between CYP707A and CYP701A, we examined the inhibitory activity against recombinant rice containing CYP701A6 expressed in insect cells using a baculovirus vector. This enzyme catalyses all three steps to KA via the corresponding alcohol and aldehyde, and consequently, the kinetic analysis is very complicated. Therefore, we evaluate the IC50 value for the formation of the end product, KA, instead of the KI value.
Reaction mixtures, containing 0.058 μM of […] microsomes, ATR2 (0.115 U), ent-kaurene (final concentration of 10 μM), inhibitors (0 for control, 1.5–1,500 μM in 8 μL dimethylformamide), and 20 mM NADPH in 500 mM potassium phosphate buffer (pH 7.4), were incubated at 30 °C for 10 min. Reactions were initiated by adding NADPH and stopped by the addition of 100 μL of 1 M HCl. Abietic acid, as the internal standard, was then added to the reaction product, which was extracted with EtOAc (400 μL × 3). The organic phase was dried over Na2SO4 and concentrated in vacuo. To derivatize the reaction products, MeOH (50 μL) and trimethylsilyldiazomethane (2 M in 5 μL hexane) were added, and the reaction mixture was incubated at room temperature for 10 min. The organic solvent was removed under N2, and samples were adjusted to 150 μL with hexane before a gas chromatography-mass spectrometry analysis (QP2010-plus; Shimadzu Corp., Kyoto, Japan). The conditions were as follows: the column was DB-5ms (0.25 mm id × 15 m, 0.25 μm film thickness; Agilent J & W, Folsom, CA, USA), the carrier gas was He, the flow rate was 1.65 mL min^−1, the injection port temperature was 280 °C, splitless injection, and the programmed column temperature was a step gradient of 80 °C for 1 min, 80–200 °C at 18 °C min^−1, 200–210 °C at 2 °C min^−1, 210–280 °C at 30 °C min^−1, and then 280 °C for 3 min. The KA content was calculated from the area ratio of molecular and fragment ions of methyl KA (m/z 316, 273, and 257) to those of methyl abietate (m/z 316 and 256). The inhibition ratio was defined as [(A − B)/A] × 100, where A = the amount of methyl KA/methyl abietate when the inhibitor was absent from the reaction mixture (control), and B = the amount of methyl KA/methyl abietate when the inhibitor was present. All of the tests were conducted at least three times.

rice seedling growth = assay: Rice seedling elongation assay; assay type: in vivo, Oryza sativa L. cv. Nipponbare; conditions: at less than 100 μM
Experimental: The effects of (−)-Abz-T compounds were also tested on the early growth of rice seedlings to investigate whether the plant growth-retardant effect derived from UNI declined. […] This was the same trend observed for (−)-Abz-E2B[26]. […] Thus, the growth-retardant effects of (−)-Abz-T compounds may arise from an increase in the endogenous ABA level due to the CYP707A inhibition, although we cannot exclude the possibility that Abz-T compounds may inhibit off-target enzymes other than CYP707A and CYP701A.
Figure 4 Effects of (−)-Abz-T compounds on rice seedling growth compared with the effects of UNI and (−)-Abz-E2B. Seedlings grown on test media containing indicated concentrations of azole inhibitors for 7 d. Scale bars represent 10 mm. Compound 6 is also referred to as Abz-E3M.
For the rice seedling elongation assay, seven seeds (Oryza sativa L. cv. Nipponbare) were sterilised with reagent-grade EtOH for 5 min and washed with running tap water. They were then soaked in distilled water and incubated under continuous illumination at 25 °C for 3 d to germinate. The germinated seeds were then soaked in 2 mL of a test medium in a glass tube and grown under continuous illumination at 25 °C. When the seedlings were 7 d old, the length of the second leaf sheath was measured. All of the assays were conducted at least three times.

[3] = system: Arabidopsis seed germination; assay: Arabidopsis seed germination assay; assay type: in vivo, Arabidopsis (Columbia accession); conditions: in the presence of 0.1 μM ABA; Fig. 3
Experimental: In addition, (−)-compound 6 inhibited Arabidopsis seed germination under high temperature conditions (Fig. S3), which can be mimicked in the laboratory to cause thermoinhibition and induce the accumulation of endogenous ABA in plants.
Figure 3 Effects of (−)-Abz-T compounds on Arabidopsis seed germination compared with that of (−)-Abz-E2B. Seed germination rates in the presence of 0.1 μM ABA and the indicated concentrations of azole inhibitors at a time when the germination rate of plants treated only with ABA was 80% (n = 3; error bars represent s.d.). Compound 6 is also referred to as Abz-E3M.
For the Arabidopsis seed germination assay, 25 to 40 seeds (Columbia accession) were sterilised successively by soaking in 70% EtOH for 30 min and reagent-grade EtOH for 1 min. They were then soaked in distilled water and incubated in the darkness at 5 °C for 3 d. The stratified seeds were then soaked in 100 μL of a test medium liquid agar in 96-well plates and allowed to germinate under continuous illumination at 22 or 30 °C. In these assays, we used the classic definition of radical emergence for seed germination. All of the assays were conducted at least three times.

SMILES	IC50 [1] [nM]	IC50 [2] [nM]	Effect on rice seedling growth (rice seedling growth)	Effect on ABA's inhibition of Arabidopsis seed germination [3]
COCCOCCOCCOCC#Cc1ccc(/C=C(\C(O)C(C)(C)C)n2cncn2)cc1 (single isomer, unassigned) [(+)-5]	7700	17000		
COCCOCCOCCOCC#Cc1ccc(/C=C(\C(O)C(C)(C)C)n2cncn2)cc1 (single isomer, unassigned) [(−)-5]	1500	8600		
CCCCOCCOCCOCC#Cc1ccc(/C=C(\C(O)C(C)(C)C)n2cncn2)cc1 (single isomer, unassigned) [(+)-3]	1000	1500		
CCCCOCCOCCOCC#Cc1cccc(/C=C(\C(O)C(C)(C)C)n2cncn2)c1 (single isomer, unassigned) [(−)-4]	12	62	did not inhibit seedling growth	enhanced the effects of ABA
CCCCOCCOCCOCC#Cc1ccc(/C=C(\C(O)C(C)(C)C)n2cncn2)cc1 (single isomer, unassigned) [(−)-3]	200	770		
CCCCOCCOCCOCC#Cc1cccc(/C=C(\C(O)C(C)(C)C)n2cncn2)c1 (single isomer, unassigned) [(+)-4]	240	120		

Reference: publication PMC5107945, “Abscinazole-E3M, a practical inhibitor of abscisic acid 8′-hydroxylase for improving drought tolerance” (Scientific Reports, 2016)
